# Test system: Vero (a non-transformed cell line as control)
# Assay: Cell viability assay (MTS), Vero
# Type: cell-based
# Conditions: Chlorocebus sabaeus, 72 h, NI = no inhibition, read-out: Antiproliferative Activity IC50 (μM) VERO
structure (smiles),measurement,value
"Cc1c(O)c(=O)ccn1C1CCC(CC2CCC(n3ccc(=O)c(O)c3C)CC2)CC1 (stereo not shown) [Compound 3g, 1,1′-(Methylenebis(cyclohexane-4,1-diyl))bis(3-hydroxy-2-methylpyridin-4(1H)-one)]",IC50,> 50 µM

# — patent publication US20250268880A1, “3-(Hydroxy)-Pyridin-4(1H)-One Compounds and Methods of Making and Using the Same” (Georgia Tech Research Corporation, priority 2018, published 2025)
